# Earlier results, collected in US20080260691A1, “Prodrugs of Ribavirin with Improved Hepatic Delivery” (priority 2004, published 2008).
# Details: orally administered
compound,measurement,value
NC(=O)c1ncn([C@@H]2O[C@H](CO)[C@@H](O)[C@H]2O)n1 [ribavirin],"toxicity, side effects",dose-dependent hemolytic anemia and depression
